This is an account of results in patent US20220387405A1, “METHODS OF TREATMENT WITH N-((R)-1-(3-CHLOROPYRIDIN-2-YL)-2,2,2-TRIFLUOROETHYL)-2-((S)-2,6-DIOXOPIPERIDIN-3-YL)-1-OXOISOINDOLINE-5-CARBOXAMIDE” (CELGENE CORPORATION, priority 2021, published 2022).

The data set concerns human peripheral blood (PB) lymphocytes. Briefly: In vitro mammalian cell micronucleus test. The conditions noted are these: 4 hours with and without S9, 24 hours without S9; compared with negative controls. The method, then: Compound 1 was tested in the in vitro mammalian cell micronucleus test in human peripheral blood (PB) lymphocytes in the presence and absence of a metabolic activation system, Aroclor-induced rat liver fraction (S9), for 4 hours, and in the absence of S9 for 24 hours. The highest concentration tested was 481 μg/mL. Dimethyl sulfoxide (DMSO) was used as the solvent. […] In addition, 2 lower concentrations with appropriate concentration and cytotoxicity spacing were chosen for micronucleus scoring in each regime.

mitomycin C: the “proportion of micronucleated binucleate cells (MBC)” value is on record as “statistically significant increases”.
